Measurements: patent US6969760 (ST JUDE CHILDREN S RESEARCH HOSPITAL, dated 2005)

Molecular target: T1, murine Jak2 protein tyrosine kinase (murine, UniProt Q62120)
T1 construct: also called 130 kDa protein; p130
Experiment: pull-down from cell extracts on GST beads, Jak2 immunoblot
Description: The fusion proteins were purified by affinity binding to glutathione-sepharose beads and the proteins, on affinity beads, were incubated with extracts of unstimulated or EPO stimulated DA3(EPOR) cells. The bound proteins were recovered from the beads, resolved on SDS-PAGE and the gels blotted to nitrocellulose. The blots were subsequently probed with antisera against various tyrosine kinases.

binding result: no binding
B1: GST alone bound to glutathione-sepharose (other, UniProt P08515 1-218, looked up)
chain: MSPILGYWKIKGLVQPTRLLLEYLEEKYEEHLYERDEGDKWRNKKFELGLEFPNLPYYIDGDVKLTQSMAIIRYIADKHNMLGGCPKERAEISMLEGAVLDIRYGVSRIAYSKDFETLKVDFLSKLPEMLKMFEDRLCHKTYLNGDHVTHPDFMLYDALDVVLYMDPMCLDAFPKLVCFKKRIEAIPQIDKYLKSSKYIAWPLQGWQATFGGGDHPPK
notes: Control; also called glutathione-S-transferase
